Reference: ChEMBL document CHEMBL3774312, “5-Substituted 3-isopropyl-7-[4-(2-pyridyl)benzyl]amino-1(2)H-pyrazolo[4,3-d]pyrimidines with anti-proliferative activity as potent and selective inhibitors of cyclin-dependent kinases” (Eur J Med Chem, 2016)

The chains behind the UniProt entries cited, without tags or fusion partners.
UniProt Q00535, whole entry: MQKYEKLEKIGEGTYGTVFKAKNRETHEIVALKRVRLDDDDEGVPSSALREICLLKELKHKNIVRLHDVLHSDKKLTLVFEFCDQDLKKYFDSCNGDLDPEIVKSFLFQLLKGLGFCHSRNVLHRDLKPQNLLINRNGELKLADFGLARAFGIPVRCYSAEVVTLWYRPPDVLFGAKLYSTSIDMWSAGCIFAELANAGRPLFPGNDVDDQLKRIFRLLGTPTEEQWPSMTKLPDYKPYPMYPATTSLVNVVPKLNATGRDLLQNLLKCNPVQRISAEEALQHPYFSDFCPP

Molecular target: Cyclin-dependent kinase 5 (Homo sapiens, UniProt Q00535)

| IC50 | Compound |
| --- | --- |
| 9 nM | CCC(CO)Nc1nc(NCc2ccc(-c3ccccn3)cc2)c2[nH]nc(C(C)C)c2n1 (configuration not stated) |
| 5 nM | CC(O)CNc1nc(NCc2ccc(-c3ccccn3)cc2)c2[nH]nc(C(C)C)c2n1 (configuration not stated) |
